US11419951B2, “Peptide-based cancer imaging agents” (Ohio State Innovation Foundation, priority 2017, dated 2022)
No end group written: not given here.

Test system: Cal 27 cells
Assay: Confocal microscopy / FACS of live unfixed Cal 27 cells (internalization and mechanism)
Conditions: 100 μM for 1.5 h before 10 μM 4Iphf-HN18-Cy5

## (4Iph)(f)LPNSNHIKQGL (not fully specified (N-terminus)) [Compound 4Iphf-HN18]
  blocking of 4Iphf-HN18-Cy5 internalization by unlabeled peptide: stopped the internalization
